The text below walks through data of EP3436577B1.

Assay [1] has as its target cation-independent mannose-6-phosphate receptor (CIMPR). Put plainly: CIMPR affinity column, elution with a free M6P gradient, fractions read by GAA activity (4MU-α-glucose).
Assay [2] shares this target. Put plainly: M6P receptor (CIMPR) plate binding assay.
For assay [3] the target is unchanged. Nature of the assay: CIMPR affinity chromatography of purified ATB200 rhGAA from different production batches.

By Kd is commonly meant the concentration at which binding is half-saturated. A low value points to higher affinity.

In assay [1], “Myozyme® (alglucosidase alfa, conventional rhGAA) (from UniProt P10253 57-952) (enzyme)” gave a percent of rhGAA bound to CIMPR (eluted with M6P) of 27% and a percent of rhGAA that did not bind to the CIMPR of 73%.

In assay [1], “Lumizyme® (alglucosidase alfa, conventional rhGAA) (from UniProt P10253 57-952) (enzyme)” had a percent of rhGAA bound to CIMPR (eluted with M6P) of 22% and a percent of rhGAA that did not bind to the CIMPR of 78%.

As for “ATB200 rhGAA (recombinant human acid α-glucosidase produced in CHO cell line GA-ATB-200) (from UniProt P10253 57-952) (enzyme)”, in assay [2], the Kd was in the range of 2 to 4 nM. In addition, the percent CIMPR receptor binding in assay [3] came to 70%.
